Results taken from ChEMBL document CHEMBL4346659, “Design, synthesis and evaluation of novel 7H-pyrrolo[2,3-d]pyrimidin-4-amine derivatives as potent, selective and reversible Bruton's tyrosine kinase (BTK) inhibitors for the treatment of rheumatoid arthritis” (Eur J Med Chem, 2019).

Experiments:
Homo sapiens [1] = species: Homo sapiens; assay: Selectivity ratio of IC50 for BMX (unknown origin) to IC50 for BTK (unknown origin)
Homo sapiens [2] = species: Homo sapiens; assay: Selectivity ratio of IC50 for human recombinant EGFR to IC50 for BTK (unknown origin)
Homo sapiens [3] = species: Homo sapiens; assay: Selectivity ratio of IC50 for human recombinant JAK3 to IC50 for BTK (unknown origin)
Homo sapiens [4] = species: Homo sapiens; assay: Selectivity ratio of IC50 for human recombinant HER2 to IC50 for BTK (unknown origin)
Homo sapiens [5] = species: Homo sapiens; assay: Selectivity ratio of human recombinant LCK to IC50 for BTK (unknown origin)
Homo sapiens [6] = species: Homo sapiens; assay: Selectivity ratio of IC50 for human recombinant LYN to IC50 for BTK (unknown origin)
Homo sapiens [7] = species: Homo sapiens; assay: Selectivity ratio of IC50 for human recombinant ITK to IC50 for BTK (unknown origin)
Homo sapiens [8] = species: Homo sapiens; assay: Selectivity ratio of IC50 for human recombinant TXK to IC50 for BTK (unknown origin)
Homo sapiens [9] = species: Homo sapiens; assay: Selectivity ratio of human recombinant YES to IC50 for BTK (unknown origin)
Homo sapiens [10] = species: Homo sapiens; assay: Selectivity ratio of IC50 for TEC (unknown origin) to IC50 for BTK (unknown origin)
Homo sapiens [11] = species: Homo sapiens; assay: Selectivity ratio of IC50 for HER4 (unknown origin) to IC50 for BTK (unknown origin)
Homo sapiens [12] = species: Homo sapiens; assay: Selectivity ratio of IC50 for human recombinant SRC to IC50 for BTK (unknown origin)
Homo sapiens [13] = species: Homo sapiens; assay: Selectivity ratio of IC50 for human recombinant FGR to IC50 for BTK (unknown origin)
Homo sapiens [14] = species: Homo sapiens; assay: Selectivity ratio of IC50 for BLK (unknown origin) to IC50 for BTK (unknown origin)
Homo sapiens [15] = species: Homo sapiens; assay: Selectivity ratio of IC50 for HCK (unknown origin) to IC50 for BTK (unknown origin)
Homo sapiens [16] = species: Homo sapiens; assay: Selectivity ratio of IC50 for human recombinant FYN to IC50 for BTK (unknown origin)

Nc1ncnc2c1c(-c1ccc(Oc3ccccc3)cc1)cn2C[C@H]1CCCN1C[C@@H]1CO1
Ratio IC50 (Homo sapiens [1]): 28 | Ratio IC50 (Homo sapiens [2]): > 333 | Ratio IC50 (Homo sapiens [3]): > 333 | Ratio IC50 (Homo sapiens [4]): > 333 | Ratio IC50 (Homo sapiens [5]): 10 | Ratio IC50 (Homo sapiens [6]): 3 | Ratio IC50 (Homo sapiens [7]): > 333 | Ratio IC50 (Homo sapiens [8]): 119 | Ratio IC50 (Homo sapiens [9]): 29 | Ratio IC50 (Homo sapiens [10]): 15 | Ratio IC50 (Homo sapiens [11]): 128 | Ratio IC50 (Homo sapiens [12]): 41 | Ratio IC50 (Homo sapiens [13]): 9 | Ratio IC50 (Homo sapiens [14]): 3 | Ratio IC50 (Homo sapiens [15]): 11 | Ratio IC50 (Homo sapiens [16]): 77
